# Antibody variant affinities, Ab-14 heavy chain, assay B

Data: MIT Lincoln Laboratory AlphaSeq set, Li et al. 2023, doi:10.1038/s41467-023-39022-2, as distributed in FLAb.

The target is the same throughout: PDVDLGDISGINAS, from the HR2 region of SARS-CoV-2 spike.

Parent scFv Ab-14: VH joined to VL by a 15-residue (Gly4Ser)3 linker. Changes lie in the heavy chain CDRs alone.
VH: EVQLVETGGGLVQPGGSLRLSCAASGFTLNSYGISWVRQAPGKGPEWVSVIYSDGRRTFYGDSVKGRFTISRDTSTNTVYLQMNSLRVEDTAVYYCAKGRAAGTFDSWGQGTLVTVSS
VL: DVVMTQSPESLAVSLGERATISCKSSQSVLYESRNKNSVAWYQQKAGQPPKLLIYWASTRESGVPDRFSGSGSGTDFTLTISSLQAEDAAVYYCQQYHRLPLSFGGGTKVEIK

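The starting antibody came from a phage panning campaign against this peptide. These sequences belong to a second round, designed from the earlier measurements on random variants of the parent. Their group label is 14H_GP_Gibbs (GP: Gaussian process model; Gibbs: Gibbs sampling; a sequence that several methods proposed may carry one label only). The assay is AlphaSeq: two haploid yeast populations carry antibody and antigen on their surface. After mating in shaken culture at 30 °C for 16 h, diploids were selected and their barcode pairs sequenced. Scores were corrected for input abundance and mapped to Kd with protein pairs of known affinity run in the same pool. There are six technical replicates.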

Variants are written as CDR1, CDR2 and CDR3 of the heavy chain (limits as in the source). Parent: GFTLNSYGIS, VIYSDGRRTFYGDSVK, GRAAGTFDS.
Scale: log10 of Kd in nM, estimated from mating counts; low values are strong binders.
An entry "ND" has no value in the source: the pair was not observed among the diploids in that replicate. This suggests poor binding but is not conclusive.
As a blank, each scFv also met three strains without target: over all heavy chain designs, 1% of these pairings were detected, typically at 2.08 and seldom below 0.84. Also given: how often the same scFv was detected with the empty control strains, with their mean in brackets.
The authors averaged sequences with at least three values out of six and counted those with two or fewer as poor binders.
A sequence measured in both rounds can read differently, since the two assays cover different ranges.

{"CDR-H1": "GFNLNSYGIS", "CDR-H2": "VIYSDGRRTFYKDSVK", "CDR-H3": "GRMAGTFDS", "log10 Kd (nM) by replicate": "0.68 1.32 1.81 2.19 1.35 0.92", "signal with controls": "1 of 18 (1.62)"}
{"CDR-H1": "GFNLNSYGIS", "CDR-H2": "VIYSDGRRTFYADRVK", "CDR-H3": "GVAAGTFDS", "log10 Kd (nM) by replicate": "1.54 0.91 1.79 0.95 1.98 1.37", "signal with controls": "0 of 18"}
{"CDR-H1": "GFELNSYGIS", "CDR-H2": "VIYSDGRRTFYGDSVK", "CDR-H3": "GNTAGTFDE", "log10 Kd (nM) by replicate": "1.60 ND 0.92 1.14 0.49 2.64", "signal with controls": "1 of 18 (1.33)"}
{"CDR-H1": "GFELNSYGIS", "CDR-H2": "VIYSDGRRTFYRDAVK", "CDR-H3": "GKTAGTFDS", "log10 Kd (nM) by replicate": "2.38 2.62 ND 1.74 1.51 2.07", "signal with controls": "0 of 18"}
{"CDR-H1": "GFTLNSYGIS", "CDR-H2": "VIYSDGRRTFYRDSVK", "CDR-H3": "GQTAGTFDL", "log10 Kd (nM) by replicate": "1.65 ND ND 0.93 ND 1.78", "signal with controls": "1 of 18 (2.23)"}
{"CDR-H1": "GFDLNSYGIS", "CDR-H2": "VIYSDGRRTFYGDAVK", "CDR-H3": "GRMAGTFDS", "log10 Kd (nM) by replicate": "0.70 0.15 0.31 0.40 0.55 0.28", "signal with controls": "1 of 18 (1.13)"}
{"CDR-H1": "GFGLNEYGIS", "CDR-H2": "VIYSDGRRTFYVDSVK", "CDR-H3": "GKAAGTFDT", "log10 Kd (nM) by replicate": "0.70 0.44 0.48 0.52 0.97 2.48", "signal with controls": "0 of 18"}
{"CDR-H1": "GFDLNSYGIS", "CDR-H2": "VIYSDGRRTMYIDSVK", "CDR-H3": "GQAAGTFDS", "log10 Kd (nM) by replicate": "0.48 -0.70 0.44 -1.00 0.72 0.38", "signal with controls": "0 of 18"}
{"CDR-H1": "GFQLNSYGIS", "CDR-H2": "VIYADGRRTFYGDSVK", "CDR-H3": "GQAAGTFDD", "log10 Kd (nM) by replicate": "0.11 1.04 0.19 -0.23 -0.54 0.25", "signal with controls": "0 of 18"}
{"CDR-H1": "GFVLNNYGIS", "CDR-H2": "VIYSDGRRTFYGDSVK", "CDR-H3": "GQTAGTFDA", "log10 Kd (nM) by replicate": "1.13 1.12 1.37 1.22 1.31 0.97", "signal with controls": "2 of 18 (2.49)"}
{"CDR-H1": "GFNLNSYGIS", "CDR-H2": "VIYSDGRRTFYVDSVK", "CDR-H3": "GSTAGTFDS", "log10 Kd (nM) by replicate": "0.85 0.83 0.45 ND 0.66 1.38", "signal with controls": "0 of 18"}
{"CDR-H1": "GFELNSYGIS", "CDR-H2": "VIYSDGRRTFYLDSVK", "CDR-H3": "GQTAGTFDS", "log10 Kd (nM) by replicate": "0.66 0.46 0.31 0.10 0.43 0.62", "signal with controls": "0 of 18"}
{"CDR-H1": "GFDLNSYGIS", "CDR-H2": "VIYSDGRRTFYQDRVK", "CDR-H3": "GEAAGTFDN", "log10 Kd (nM) by replicate": "ND ND -1.73 -1.95 ND -1.61", "signal with controls": "0 of 18"}
{"CDR-H1": "GFTLNSYGIS", "CDR-H2": "VIYSDGKRTFYADRVK", "CDR-H3": "GQAAGTFDL", "log10 Kd (nM) by replicate": "ND ND ND 1.79 2.73 ND", "signal with controls": "0 of 18"}
{"CDR-H1": "GFTLNSYGIS", "CDR-H2": "VIYSDGRRTFYADDVK", "CDR-H3": "GKNAGTFDS", "log10 Kd (nM) by replicate": "0.77 0.56 0.83 0.53 0.92 1.20", "signal with controls": "0 of 18"}
{"CDR-H1": "GFQLNEYGIS", "CDR-H2": "VIYSDGRRTFYSDSVK", "CDR-H3": "GQAAGTFDT", "log10 Kd (nM) by replicate": "0.26 0.30 0.55 0.40 0.17 0.38", "signal with controls": "0 of 18"}
{"CDR-H1": "GFDLNSYGIS", "CDR-H2": "VIYSDGRRTFYSDRVK", "CDR-H3": "GEAAGTFDT", "log10 Kd (nM) by replicate": "0.48 0.94 0.59 0.52 0.64 0.65", "signal with controls": "0 of 18"}
{"CDR-H1": "GFSLNDYGIS", "CDR-H2": "VIYSDGRRTFYADSVK", "CDR-H3": "GRAAGTFDK", "log10 Kd (nM) by replicate": "ND ND ND ND ND ND", "signal with controls": "0 of 18"}
{"CDR-H1": "GFTLNSYGIS", "CDR-H2": "VIYSDGRRTFYIDAVK", "CDR-H3": "GQEAGTFDS", "log10 Kd (nM) by replicate": "ND ND ND ND ND ND", "signal with controls": "0 of 18"}
{"CDR-H1": "GFSLNDYGIS", "CDR-H2": "VIYSDGRRTFYGDAVK", "CDR-H3": "GKTAGTFDS", "log10 Kd (nM) by replicate": "0.77 0.65 -0.18 -0.27 0.01 0.39", "signal with controls": "0 of 18"}
{"CDR-H1": "GFKLNEYGIS", "CDR-H2": "VIYSDGRRTFYGDSVK", "CDR-H3": "GKAAGTFDL", "log10 Kd (nM) by replicate": "0.45 -0.54 0.44 -0.10 -0.09 0.78", "signal with controls": "0 of 18"}
{"CDR-H1": "GFVLNEYGIS", "CDR-H2": "VIYSDGRRTFYVDSVK", "CDR-H3": "GKAAGTFDS", "log10 Kd (nM) by replicate": "1.77 0.48 0.28 0.89 0.75 0.34", "signal with controls": "0 of 18"}
{"CDR-H1": "GFDLNSYGIS", "CDR-H2": "VIYSDGRRTFYVDSVK", "CDR-H3": "GLTAGTFDS", "log10 Kd (nM) by replicate": "-0.08 0.34 0.27 0.24 0.23 0.23", "signal with controls": "0 of 18"}
{"CDR-H1": "GFELNSYGIS", "CDR-H2": "VIYSDGRRTFYGDNVK", "CDR-H3": "GKNAGTFDS", "log10 Kd (nM) by replicate": "0.78 0.91 0.96 0.77 0.30 1.76", "signal with controls": "0 of 18"}
{"CDR-H1": "GFDLNSYGIS", "CDR-H2": "VIYSDGRRTFYGDSVK", "CDR-H3": "GSTAGTFDF", "log10 Kd (nM) by replicate": "0.05 -0.06 -0.06 -0.41 -0.33 -0.10", "signal with controls": "0 of 18"}
{"CDR-H1": "YFSLNSYGIS", "CDR-H2": "VIYSDGRRTFYGDSVK", "CDR-H3": "GKTAGTFDS", "log10 Kd (nM) by replicate": "ND ND ND ND ND ND", "signal with controls": "0 of 18"}
{"CDR-H1": "GFHLNEYGIS", "CDR-H2": "VIYSDGRRTFYGDSVK", "CDR-H3": "GRTAGTFDW", "log10 Kd (nM) by replicate": "0.02 0.21 0.21 0.25 0.15 0.24", "signal with controls": "0 of 18"}
{"CDR-H1": "GFDLNSYGIS", "CDR-H2": "VIYSDGRRTFYKDAVK", "CDR-H3": "GRTAGTFDS", "log10 Kd (nM) by replicate": "0.01 0.83 0.65 -0.53 -0.20 -0.08", "signal with controls": "0 of 18"}

The closing 2 entries, repeated:

{"CDR-H1": "GFHLNEYGIS", "CDR-H2": "VIYSDGRRTFYGDSVK", "CDR-H3": "GRTAGTFDW", "log10 Kd (nM) by replicate": "0.02 0.21 0.21 0.25 0.15 0.24", "signal with controls": "0 of 18"}
{"CDR-H1": "GFDLNSYGIS", "CDR-H2": "VIYSDGRRTFYKDAVK", "CDR-H3": "GRTAGTFDS", "log10 Kd (nM) by replicate": "0.01 0.83 0.65 -0.53 -0.20 -0.08", "signal with controls": "0 of 18"}